Earlier results in EP0853484B1, “NOVEL MU OPIOID RECEPTOR LIGANDS: AGONISTS AND ANTAGONISTS” (TORREY PINES INSTITUTE FOR MOLECULAR STUDIES, priority 1995, dated 1996).
Like-named read-outs stand apart in the source and are kept apart here.

Tested on: guinea-pig ileum
Conditions: GPI, cited from earlier work

**Q.** Which Kb (read-out: Ke for naloxone as the antagonist, µ effects, µ receptor mediated effects) does the source give for `C=CCN1CC[C@]23c4c5ccc(O)c4O[C@H]2C(=O)CC[C@@]3(O)[C@H]1C5` [naloxone] here?
**A.** The Kb was 1 to 3 nM.

**Q.** What about the Kb (read-out: Ke for naloxone as the antagonist, κ effects, κ receptor mediated effects) of the same compound?
**A.** The Kb was 20 to 30 nM.
